Chains of the proteins cited; added tags and fusions are not shown. Residues count along the entry.
UniProt Q00987, 17-125: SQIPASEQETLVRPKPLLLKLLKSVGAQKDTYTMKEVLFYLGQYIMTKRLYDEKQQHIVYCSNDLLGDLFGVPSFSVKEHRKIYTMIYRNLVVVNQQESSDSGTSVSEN

In patent publication US9540377B2, “2,6,7,8 substituted purines as HDM2 inhibitors” (Merck Sharp & Dohme Corp., priority 2013, dated 2017):

Target: HDM2 (truncated, residues 17 to 125, containing p53 binding surface) (Homo sapiens (Human), UniProt Q00987)
Test: HDM2 FRET assay (inhibition of binding of FITC labeled p53-site peptide to HDM2)
Description: (containing p53 binding surface, Science (1994) 265, 346-355), with N-terminal His and Thioredoxin tag was generated in pET32a expression vector and expressed in E. coli strain BL21(DE3)Rosetta. […] IC50 DETERMINATIONS: Dose-response curves were plotted from the inhibition data, from 10 point serial dilutions of inhibitory compounds. Concentration of compound was plotted against em520/Cem495 ratio signal. To generate IC50 values, the dose-response curves were fitted to a standard sigmoidal curve and IC50 values were derived by nonlinear regression analysis.

| SMILES | IC50 (Table 23) [nM] | IC50 (Table 16) [nM] |
| --- | --- | --- |
| COC(c1nc2nc(-c3noc(=O)[nH]3)nc(-c3cccc(Cl)c3)c2n1C[C@H]1CC[C@H](C)CC1)C1CCCCC1 (mixture of isomers) [Example 23.14, 3-{6-(3-chlorophenyl)-8-[cyclohexyl(methoxy)methyl]-7-[(trans-4-methylcyclohexyl)methyl]-7H-purin-2-yl}-1,2,4-oxadiazol-5(4H)-one] | 9.03 |  |
| COC(C)(C)C1CCCN1c1nc2nc(-c3noc(=O)[nH]3)nc(-c3cccc(Cl)c3)c2n1C[C@H]1CC[C@H](C)CC1 (single isomer, unassigned) [Example 16.65, 3-{6-(3-chlorophenyl)-8-[2-(1-methoxy-1-methylethyl)pyrrolidin-1-yl]-7-[(trans-4-methylcyclohexyl)methyl]-7H-purin-2-yl}-1,2,4-oxadiazol-5(4H)-one] |  | 0.658 |
| C[C@H]1CC[C@H](Cn2c(C3OCCc4ccccc43)nc3nc(-c4noc(=O)[nH]4)nc(-c4cncc(Cl)c4)c32)CC1 (single isomer, unassigned) [Example 23.105, 3-{6-(5-chloropyridin-3-yl)-8-(3,4-dihydro-1H-isochromen-1-yl)-7-[(trans-4-methylcyclohexyl)methyl]-7H-purin-2-yl}-1,2,4-oxadiazol-5(4H)-one] | 2.16 |  |
| C[C@@H]1OCCN(c2nc3nc(-c4noc(=O)[nH]4)nc(-c4cccc(Cl)c4)c3n2C[C@H]2CC[C@H](C)CC2)[C@@H]1C (racemic) [Example 16.100, 3-{6-(3-chlorophenyl)-8-[(cis)-2,3-dimethylmorpholin-4-yl]-7-[(trans-4-methylcyclohexyl)methyl]-7H-purin-2-yl}-1,2,4-oxadiazol-5(4H)-one] |  | 51 |
| COCC(C)(F)c1nc2nc(-c3noc(=O)[nH]3)nc(-c3cncc(Cl)c3)c2n1C[C@H]1CC[C@H](C)CC1 (mixture of isomers) [Example 23.108, 3-{6-(5-chloropyridin-3-yl)-8-(1-fluoro-2-methoxy-1-methylethyl)-7-[(trans-4-methylcyclohexyl)methyl]-7H-purin-2-yl}-1,2,4-oxadiazol-5(4H)-one] | 3.77 |  |
| COC(C)(c1ccccc1C#N)c1nc2nc(-c3noc(=O)[nH]3)nc(-c3cncc(Cl)c3)c2n1C[C@H]1CC[C@H](C)CC1 (single isomer, unassigned) [Example 23.112, 2-{1-[6-(5-chloropyridin-3-yl)-7-[(trans-4-methylcyclohexyl)methyl]-2-(5-oxo-4,5-dihydro-1,2,4-oxadiazol-3-yl)-7H-purin-8-yl]-1-methoxyethyl}benzonitrile] | 2.77 |  |
| C[C@H]1CC[C@H](Cn2c(C(O)C3CCOCC3)nc3nc(-c4n[nH]c(=O)o4)nc(-c4cncc(Cl)c4)c32)CC1 (mixture of isomers) [Example 23.19, 5-{6-(5-chloropyridin-3-yl)-8-[hydroxy(tetrahydro-2H-pyran-4-yl)methyl]-7-[(trans-4-methylcyclohexyl)methyl]-7H-purin-2-yl}-1,3,4-oxadiazol-2(3H)-one] | 104 |  |
| COC(C)(c1ccccn1)c1nc2nc(-c3nc(=O)o[nH]3)nc(-c3cccc(Cl)c3)c2n1C[C@H]1CC[C@H](C)CC1 (single isomer, unassigned) [Example 23.52, 3-{6-(3-chlorophenyl)-8-[1-methoxy-1-(pyridin-2-yl)ethyl]-7-[(trans-4-methylcyclohexyl)methyl]-7H-purin-2-yl}-1,2,4-oxadiazol-5(2H)-one] | 6.22 |  |
| COC(c1ccccc1)c1nc2nc(-c3noc(=O)[nH]3)nc(-c3cncc(Cl)c3)c2n1C[C@H]1CC[C@H](C)CC1 (single isomer, unassigned) [Example 23.48, 3-{6-(5-chloropyridin-3-yl)-8-[methoxy(phenyl)methyl]-7-[(trans-4-methylcyclohexyl)methyl]-7H-purin-2-yl}-1,2,4-oxadiazol-5(4H)-one] | 4.22 |  |
